Experiment: Molecular assays (HPLC, mass spectrometry, isoelectric focusing, immunoassay) of recovered aerosol versus initial formulation
Type: physicochemical
Details: FSH 150 ng/mL
Procedure: Proteins were tested with a transgenic cell bioassays with receptors introduced to the cells specific to the test protein. These bioassays were appropriate for indicating the functional effectiveness of the protein. Molecular assays were performed to indicate the primary or tertiary structure of the molecule. Assays used included size exclusion high performance liquid chromatography, reverse phase high performance liquid chromatography, mass spectrometry, isoelectric focusing and immunoassay.
Each protein was formulated at a concentration that was calculated to be of clinical significance such that the plume of aerosol contained the required amount of therapeutic. Humectant was added to the protein formulation which was filled into an inkjet cartridge and fired from the cartridge.
Resistor surfaces and nozzles were inspected by Scanning Electron Microscopy to establish the cleanliness of the surfaces and subsequently the effectiveness of the humectant and surfactant. When humectant and surfactant concentrations were suitable, the aerosol from the device was collected, analyzed, and compared with the solution before aerosolization.
During testing, it was useful to ensure that the composition of the aerosol emanating from the device was the same in all discernable aspects as the formulation filled into the device. […]

## follicle stimulating hormone
  mass spectrometry, HPLC, isoelectric focussing and immunoassay comparison of recovered aerosol and initial formulation: no difference
